Counter-ions that a name gives are not always drawn.
Columns and labels:
[1] = target: HIST 166–172 peptide (histamine 1 receptor) (Homo sapiens, UniProt P35367); conditions: read-out: Kd (µM) @ 200 nm, low-affinity component
[2] = target: HIST 177–183 peptide (histamine 1 receptor) (Homo sapiens, UniProt P35367); experiment: biochemical
[3] = target: B2AR 175–188 peptide (β-2-adrenergic receptor) (Homo sapiens, UniProt P07550); experiment: biochemical

Amino acid sequences for entries named in this document (tags omitted). A change or cut given only in a name is not applied to a line headed by its entry.
UniProt P35367: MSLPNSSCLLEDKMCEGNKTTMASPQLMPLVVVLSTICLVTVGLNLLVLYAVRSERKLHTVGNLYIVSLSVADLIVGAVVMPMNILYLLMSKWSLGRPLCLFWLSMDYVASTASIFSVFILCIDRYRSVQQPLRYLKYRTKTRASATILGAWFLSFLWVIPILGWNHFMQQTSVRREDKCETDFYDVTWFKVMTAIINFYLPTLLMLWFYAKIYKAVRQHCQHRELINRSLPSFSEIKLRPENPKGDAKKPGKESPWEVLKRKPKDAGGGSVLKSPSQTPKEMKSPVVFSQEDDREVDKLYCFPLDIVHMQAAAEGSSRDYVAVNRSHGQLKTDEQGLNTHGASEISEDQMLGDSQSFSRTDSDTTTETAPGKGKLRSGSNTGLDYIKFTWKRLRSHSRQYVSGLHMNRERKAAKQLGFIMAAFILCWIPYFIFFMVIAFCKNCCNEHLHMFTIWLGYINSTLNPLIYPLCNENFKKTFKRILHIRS
UniProt P07550: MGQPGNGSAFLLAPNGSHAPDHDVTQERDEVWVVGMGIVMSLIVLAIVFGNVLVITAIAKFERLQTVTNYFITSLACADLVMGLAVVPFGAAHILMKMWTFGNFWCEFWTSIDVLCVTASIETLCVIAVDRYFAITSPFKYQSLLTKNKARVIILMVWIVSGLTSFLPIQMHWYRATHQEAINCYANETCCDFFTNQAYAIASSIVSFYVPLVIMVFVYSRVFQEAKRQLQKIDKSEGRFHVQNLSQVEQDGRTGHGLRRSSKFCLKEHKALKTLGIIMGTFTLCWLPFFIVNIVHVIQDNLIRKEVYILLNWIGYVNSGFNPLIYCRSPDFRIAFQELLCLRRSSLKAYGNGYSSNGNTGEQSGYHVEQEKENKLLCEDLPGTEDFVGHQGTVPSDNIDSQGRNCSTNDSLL

SMILES: CN1CC[C@]23c4c5ccc(O)c4O[C@H]2[C@@H](O)C=C[C@H]3[C@H]1C5 [Morph, morphine sulfate]
- Kd [1]: 30 µM
- Kd [2]: 30 µM
- Kd [3]: 50 µM
